The list shows a part of the results, in another mix than the full data. Inconclusive results are not listed. The source made the active and inactive calls. Calls follow the shape of the dose curve; as a rule, active = well fitted inhibition curve with a large enough effect; inconclusive = small, poorly fitted or top-dose-only effect, or another doubt; inactive = no such curve, though single readings can be large or run the other way.
target: DNA polymerase eta (Homo sapiens) (UniProt Q9Y253); assay: qHTS for Inhibitors of Polymerase Eta; conditions: recombinant Pol eta, fluorescent DNA replication assay; series mostly up to 114 µM; activity change, negative = inhibition: at the top concentration
% is scaled to controls: 0 for no effect and ±100 for the full control effect.

The chains behind the UniProt entries cited, without tags or fusion partners. Where a name states a change or a piece, a line headed by the entry shows the natural chain unless it says otherwise.
UniProt Q9Y253: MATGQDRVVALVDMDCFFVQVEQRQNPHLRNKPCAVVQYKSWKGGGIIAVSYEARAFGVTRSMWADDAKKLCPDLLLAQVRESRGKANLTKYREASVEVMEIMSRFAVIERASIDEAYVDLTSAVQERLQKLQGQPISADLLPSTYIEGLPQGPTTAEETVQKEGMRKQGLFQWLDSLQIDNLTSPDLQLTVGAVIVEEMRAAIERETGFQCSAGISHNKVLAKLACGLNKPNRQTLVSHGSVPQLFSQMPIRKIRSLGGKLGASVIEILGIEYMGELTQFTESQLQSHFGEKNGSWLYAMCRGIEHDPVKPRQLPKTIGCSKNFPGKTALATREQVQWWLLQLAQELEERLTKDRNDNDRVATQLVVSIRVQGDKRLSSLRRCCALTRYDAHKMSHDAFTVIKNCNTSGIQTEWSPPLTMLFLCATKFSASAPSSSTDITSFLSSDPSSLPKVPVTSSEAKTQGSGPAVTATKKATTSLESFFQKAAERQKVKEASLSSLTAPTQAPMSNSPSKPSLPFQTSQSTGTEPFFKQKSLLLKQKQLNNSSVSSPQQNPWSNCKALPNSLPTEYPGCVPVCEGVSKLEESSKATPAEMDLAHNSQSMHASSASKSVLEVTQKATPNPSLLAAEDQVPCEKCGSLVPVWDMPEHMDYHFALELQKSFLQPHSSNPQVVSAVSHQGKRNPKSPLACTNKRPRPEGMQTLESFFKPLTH

| Compound | activity change, negative = inhibition |
| --- | --- |
| COP1(=S)c2c(C)nn(CCC#N)c2N=C(c2ccc(F)cc2)N1C (configuration not stated) | inactive: 0.863% |
| O=C(O)C(=O)c1ccc(N(CCCl)CCCl)cc1 | inactive: 3.06% |
| O=C(COc1ccccc1)OC1CN2CCC1CC2 (configuration not stated) | inactive: -11% |
| O=C(Nc1ccncc1[N+](=O)[O-])c1ccc([N+](=O)[O-])cc1[N+](=O)[O-] | inactive: -2.17% |
| O=C(OC1CN2CCC1CC2)c1cccc([N+](=O)[O-])c1 (configuration not stated) | inactive: -14.7% |
| CSc1ccc(Nc2c([N+](=O)[O-])cc([N+](=O)[O-])cc2[N+](=O)[O-])cc1 | inactive: -0.949% |
| CCOC(=O)c1ccc(NC(=O)C(C)(CCl)SC)cc1 (configuration not stated) | inactive: 4.16% |
| CCC(C)N(CC(C)C)C(=S)SC(NC(C)=O)C(Cl)(Cl)Cl (configuration not stated) | inactive: -23.8% |
| O=C(O)C(O)c1ccc(N(CCCl)CCCl)cc1 (configuration not stated) | inactive: -3.7% |
| CCOC(=O)Nc1ccc([As](=O)(O)O)c(O)c1 | inactive: 11.7% |
| CC1CCNP(=O)(N(CCCl)CCCl)O1 (configuration not stated) | inactive: -6.03% |
| COP(=O)(OC)N1CC1c1ccccc1 (configuration not stated) | inactive: 0.899% |
| CCCCOc1ccc(C(=O)NCC2(N3CCCCC3)CCCCC2)cc1OC | inactive: -21.9% |
| Cc1cc(SC(NC(=O)c2ccccc2)C(Cl)(Cl)Cl)nc(C(C)C)n1 (configuration not stated) | inactive: -16.9% |
| CCOC(=O)Nc1cccc([As](=O)(O)O)c1 | inactive: 15.4% |
| Cc1cc(SC(NC=O)C(Cl)(Cl)Cl)ncn1 (configuration not stated) | inactive: 2.52% |

| Compound | activity change, negative = inhibition |
| --- | --- |
| O=P(Nc1ccccn1)(c1cccc2ccccc12)c1cccc2ccccc12 | inactive: -19.6% |
| O=[N+]([O-])c1ccc(Nc2ccc(Oc3ccc([N+](=O)[O-])cc3[N+](=O)[O-])cc2)c([N+](=O)[O-])c1 | inactive: -11.4% |
| O=[As](O)(c1ccc(O)cc1)c1ccccc1O | inactive: -17% |
| C[As](=O)(O)c1cccc(C(=O)O)c1 | inactive: -9.71% |
| O=[N+]([O-])c1ccc(-c2cc([N+](=O)[O-])c(O)c([N+](=O)[O-])c2)cc1 | inactive: -5.75% |
| COc1cc(C(=O)NCC2(N3CCOCC3)CCCCC2)ccc1OCC(C)C | inactive: -11.3% |
| Cc1ccc(OP(=O)(Nc2ccc([N+](=O)[O-])cn2)Oc2ccc(C)cc2)cc1 | inactive: 7.03% |
| Cc1ccc2nc3c(c(C)c2c1)CC(C(Cl)Cl)S3 (configuration not stated) | inactive: -17.2% |
| ClCCSc1nnc(-c2cccnc2)o1 | inactive: -5.55% |
| COC(=O)C1(C)COP(=O)(N2CCCCCC2)OC1 (configuration not stated) | inactive: -10.3% |
| CC(C)c1ccc(OP(=O)(Nc2ccccn2)Oc2ccccc2F)cc1 (configuration not stated) | inactive: -17.4% |
| CC(C)NC(=O)NP(=O)(Oc1ccccc1)Oc1ccccc1 | inactive: 2.12% |
| CCN(CC)C(=S)SC(NC=O)C(Cl)(Cl)Cl (configuration not stated) | inactive: -0.399% |
| O=C(OC1CN2CCC1CC2)c1cccc2[nH]cnc12 (configuration not stated) | inactive: -8.71% |
| Cc1c2c(nc3ccccc13)SC(C(Cl)Cl)C2 (configuration not stated) | inactive: -18.6% |
| O=C(OC1CN2CCC1CC2)C12CC3CC(CC(C3)C1)C2 (configuration not stated) | inactive: -5.06% |

Source: PubChem BioAssay AID588591 (National Center for Advancing Translational Sciences (NCATS), 2011)
